# PubChem BioAssay AID1714 (Vanderbilt High Throughput Screening Facility, 2009)
# Only a part is listed here, and it is no random draw. Results filed as inconclusive are left out. Calls of active or inactive are those of the source.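 How the source made its calls: active means thallium entry rate above the same plate's blocked-transporter control wells by more than 3 SD; inconclusive means the two repeat wells disagree; inactive means the rest.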
# Assay: FluoZin2 fluorescence counter-screen of MLSMR hits on KCC2-expressing cells (AID 1714);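 further: raw slope of fluorescence over initial fluorescence between 10 and 20 s after thallium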
# Settings: HEK293-KCC2 + bumetanide/ouabain, at 10 µM, stronger effect = higher value
# Procedure, shortened: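 Assay system: HEK cells expressing the K-Cl cotransporter KCC2; buffer or medium: HBSS-HEPES plus ouabain 0.2 mM, bumetanide 2 mM; reagent: thallium stimulus; compound dosing: 10 µM single dose; timing: 48 min dye loading; signal: FluoZin2-AM (0.5 µM) fluorescence, 480 nm ex/540 nm em, 1 Hz kinetic imaging; replication: duplicates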
row,SMILES,normalized thallium flux
1,CP(=O)(Nc1ccccc1)Oc1ccc(F)cc1 (stereo unspecified),inactive: 0.007
